Binding of CDR-mutated scFvs to a peptide of the spike HR2 region

Binding partner: SARS-CoV-2 spike HR2 peptide, sequence PDVDLGDISGINAS.

Parent scFv Ab-14: VH joined to VL by the linker GGGGSGGGGSGGGGS. Changes lie in the light chain CDRs alone.
VH: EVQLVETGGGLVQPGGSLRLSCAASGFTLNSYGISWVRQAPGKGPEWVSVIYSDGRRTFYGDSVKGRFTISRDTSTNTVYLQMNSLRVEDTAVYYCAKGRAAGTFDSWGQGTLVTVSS
VL: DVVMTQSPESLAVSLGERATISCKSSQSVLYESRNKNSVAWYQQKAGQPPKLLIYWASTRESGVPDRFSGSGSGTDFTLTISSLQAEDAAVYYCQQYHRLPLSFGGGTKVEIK

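The parent was found by panning a naive human phage display library on the peptide. Designed CDR sequences, proposed from the first random library and measured here. Group labels follow the data file (Ctrl: baseline library sampled from a position-specific scoring matrix, with some repeated check sequences; GP: Gaussian process model; HC: hill climbing; Gen: genetic algorithm; Gibbs: Gibbs sampling; a sequence that several methods proposed may carry one label only). In AlphaSeq, yeast of one mating type display the scFv and yeast of the other type display the target. Mating (16 h, 30 °C) was followed by selection of diploids and sequencing of their barcodes. A regression on co-assayed BCL2-family reference pairs converts the normalised counts of each replicate to an apparent Kd. The assay was run in six technical replicates.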

Positions count from residue 1 of the parent VL; E32I puts I in place of E. Variants here have at most six changes. Kd is apparent (estimated from mating counts) and averaged on the log scale over replicates with a signal. Smaller is tighter. "no signal" marks a missing value. The strain was present, yet no cells mated with the target were sequenced in any replicate, which points to weak or no binding. A sequence measured in both rounds can read differently, since the two assays cover different ranges.

Variant E32I/S33D/W56Q [Ctrl] gave 50 nM (6 of 6 replicates).
Variant R34C/K36C/W56A/Y97V [Ctrl] gave no signal (0 of 6 replicates).
Variant S26Q/Y31D/S33E/K36D/E61L [GP_Gibbs] gave 33 nM (5 of 6 replicates).
Variant S28D/Y31M/W56Y [Ctrl] gave 43 nM (6 of 6 replicates).
Variant S25M/S26E/S28G/W56G/T59Q [GP_HC] gave 730 pM (6 of 6 replicates).
Variant S25Q/Q27P/S28E/V29K/W56D [GP_HC] gave 780 pM (6 of 6 replicates).
Variant S25L/S26D/L30E/E32G/W56S [GP_Gibbs] gave 710 pM (6 of 6 replicates).
Variant S25L/S26R/Q27G/V29T/K36P [GP_HC] gave 2.8 nM (6 of 6 replicates).
Variant S62V [Ctrl] gave 170 nM (4 of 6 replicates).
Variant S25L/S33E/W56N/S62V [GP_Gen] gave 300 pM (6 of 6 replicates).
Variant S25I/K36W/S38A/W56E/T59Q/Q96D [GP_Gibbs] gave 900 pM (6 of 6 replicates).
Variant S25V/V29Y/S38N/W56N [GP_Gen] gave 390 pM (6 of 6 replicates).
Variant L102N [Ctrl] gave no signal (0 of 6 replicates).
Variant S62R [Ctrl] gave no signal (0 of 6 replicates).
Variant S25L/V29W/W56N/E61L/S62M [GP_Gen] gave 1.3 nM (6 of 6 replicates).
Variant Y31K/K36G [Ctrl] gave 680 nM (1 of 6 replicates).
Variant S25V/V29G/Y31P/W56G/A57I [Ctrl] gave 4.3 nM (6 of 6 replicates).
Variant S25L/S26R/Q27M/V29T/T59Q [GP_HC] gave 2.4 nM (6 of 6 replicates).
Variant Y31S/Y97C [Ctrl] gave 1.3 µM (3 of 6 replicates).
Variant S25V/S26E/W56N/E61M [GP_Gen] gave 1.1 nM (6 of 6 replicates).
Variant S25L/L30E/W56E/E61C [GP_Gen] gave 1.0 nM (6 of 6 replicates).
Variant S25L/V29W/S38N/W56N/S62D [GP_Gen] gave 380 pM (6 of 6 replicates).
Variant V29A/L30V/S38Q/S103K [Ctrl] gave 290 nM (2 of 6 replicates).
Variant K24F/S25L/W56D [GP_Gen] gave 3.2 nM (6 of 6 replicates).
Variant W56D/H98D [Ctrl] gave 220 nM (3 of 6 replicates).
Variant W56D/Q96C [Ctrl] gave 19 nM (6 of 6 replicates).
Variant S28Q/V29Y/W56G [GP_HC] gave 840 pM (6 of 6 replicates).
Variant V29H/S62P/H98F [Ctrl] gave 1.5 nM (4 of 6 replicates).
Variant Q27C/V29G/N35M/W56E [GP_HC] gave 680 pM (6 of 6 replicates).
Variant Q27P/R34V/W56N/E61M [GP_HC] gave 1.6 nM (6 of 6 replicates).
Variant Q27S/S33T/W56K/Q96E [Ctrl] gave 62 nM (6 of 6 replicates).
Variant Q27D/S28L/W56Q [Ctrl] gave 3.3 nM (6 of 6 replicates).
Variant S25H/R60H [Ctrl] gave no signal (0 of 6 replicates).
Variant S25L/S26R/Q27F/V29T/W56E [GP_HC] gave 370 pM (6 of 6 replicates).
Variant S25F/N35A/W56N/Q96W [GP_HC] gave 54 nM (6 of 6 replicates).
Variant S25Q/S28E/V29K/W56D/H98W [GP_HC] gave 5.1 nM (6 of 6 replicates).
Variant S25F/N35A/W56N/S58V/S62T [GP_HC] gave 390 pM (6 of 6 replicates).
Variant A57G/S62E/P101L [Ctrl] gave no signal (0 of 6 replicates).
Variant S25F/V29W/Y31L/W56E/E61Q [GP_HC] gave 560 pM (6 of 6 replicates).

Repeated from above, the 6 best binders with a signal in all replicates:

{"changes": "S25L/S33E/W56N/S62V", "group": "GP_Gen", "Kd": "300 pM", "replicates with signal": "6/6"}
{"changes": "S25L/S26R/Q27F/V29T/W56E", "group": "GP_HC", "Kd": "370 pM", "replicates with signal": "6/6"}
{"changes": "S25L/V29W/S38N/W56N/S62D", "group": "GP_Gen", "Kd": "380 pM", "replicates with signal": "6/6"}
{"changes": "S25V/V29Y/S38N/W56N", "group": "GP_Gen", "Kd": "390 pM", "replicates with signal": "6/6"}
{"changes": "S25F/N35A/W56N/S58V/S62T", "group": "GP_HC", "Kd": "390 pM", "replicates with signal": "6/6"}
{"changes": "S25F/V29W/Y31L/W56E/E61Q", "group": "GP_HC", "Kd": "560 pM", "replicates with signal": "6/6"}

The parent sequence was in this pool as ten entries: three were never detected, three once, and four in most replicates, with averages from 2.2 nM to 240 nM. Nonspecific signal, from three strains lacking the peptide, appeared in 4% of pairings of all light chain designs, centred on 430 nM (5% of these signals below 38 nM); values are not corrected for it. In the paper, a design with two or fewer of six values counts as a poor binder.

The measurements come from Li et al. 2023 (doi:10.1038/s41467-023-39022-2) through the FLAb antibody collection.